Experimental data from EP4837903A1, “TETRAZOLE COMPOUND, PHARMACEUTICAL COMPOSITION THEREOF AND USE THEREOF” (dated 2026).

Tests used:
[1] = test system: bleomycin-induced pulmonary fibrosis mice; test: MASSON staining of lung tissue, modified Ashcroft scale scoring, in bleomycin-induced pulmonary fibrosis mouse model; details: bleomycin 1 mg/kg intratracheal; 30 mg/kg by gavage, treatment from day 7 for 14 days; MASSON staining of lung sections
Source text: (§1) Pulmonary fibrosis model establishment: Male C57BL6J mice (Vital River, C57BL/6JNifdc), aged 6-8 weeks, were adaptively fed for one week and divided into a model group (6 mice), a Compound 1 treatment group (6 mice), a Compound 2 treatment group (6 mice), a Compound 3 treatment group (6 mice), a Compound 4 treatment group (6 mice), a Vofopitant treatment group (6 mice), a Nintedanib (Nintedanib is a commonly used drug in the prior art for treating IPF) treatment group (6 mice), and a control group (6 mice).
(§2) Preparation of bleomycin solution: Bleomycin dry powder was prepared to the desired concentration using sterile PBS.
(§3) Non-surgical method for intratracheal instillation of bleomycin into mouse lungs: Mice were anesthetized with isoflurane and suspended on an operating board at a 70° angle. Bleomycin was instilled intratracheally using a 200 µL pipette.
(§4) On the first day, the model group and each treatment group received intratracheal instillation of bleomycin solution (1 mg/kg/50 µL). The control group received an equal volume of normal saline. Treatment began 7 days after model establishment and continued for 14 days, totaling 21 days.
(§5) Compounds 1 to 4 were each dissolved in water to prepare 30 mg/mL stock solutions. For working solutions, the stock solutions were diluted 5-fold with autoclaved water to the required volume. Each mouse received Compound 1 to Compound 4 at a dose of 30 mg/kg, administered by gavage.
(§6) Vofopitant was dissolved in water to prepare a 30 mg/mL stock solution. For the working solution, the stock solution was diluted 5-fold with autoclaved water to the required volume. Each mouse received Vofopitant at a dose of 30 mg/kg, administered by gavage.
(§7) Preparation, dosage, and administration of Nintedanib drug solution: Nintedanib was dissolved in DMSO to prepare a stock solution (40 mg/mL). For the working solution, the stock solution was diluted 7-fold with 20% SBE-β-CD physiological saline solution to the required volume and mixed well. Each mouse received Nintedanib at a dose of 30 mg/kg, administered by gavage.
MASSON staining: Mouse lung tissue samples were fixed in 4% paraformaldehyde for 24 hours, dehydrated through a graded alcohol series, embedded in paraffin, cut into 5 µm sections, and subjected to MASSON staining. After clearing with xylene, the sections were mounted with neutral balsam. Pathological changes in the lungs were observed and photographed under an optical microscope.
The scoring criteria for the modified Ashcroft scale are as follows:
As shown by the scoring results in Table 2, compared with the control group, the degree of pulmonary fibrosis injury in the model group mice was exacerbated. The Compound 1 to Compound 4 treatment groups, the Vofopitant treatment group, and the Nintedanib treatment group all ameliorated the degree of pulmonary fibrosis injury in mice.

[2] = Rat pharmacokinetic study (oral gavage); details: male SD rats, oral gavage 10 mg/kg, vehicle water; for AUC0-24h / Cmax / T1/2 / Tmax: plasma; for F: bioavailability
Procedure: For the rat pharmacokinetic study, male SD rats (Shanghai Jihui) weighing 200-250 g each were fasted overnight. Six rats were administered Compounds 1-4 of the present invention and Vofopitant separately by oral gavage at a dose of 10 mg/kg, with water as the vehicle. Blood samples were collected before administration and at 15 min, 30 min, 1 h, 2 h, 4 h, 6 h, 8 h, 10 h, and 24 h after administration. Blood samples of 0.2 mL were collected into labeled tubes containing EDTA-2K anticoagulant. The tubes were gently inverted to mix the anticoagulant (EDTA-2K) thoroughly with the blood, immediately placed in wet ice, and centrifuged to separate plasma within 1 hour after blood collection. Centrifugation conditions were 4°C, 6800 × g, for 6 minutes. The separated plasma was transferred to labeled Eppendorf tubes and stored in an ultra-low temperature freezer as soon as possible until sample analysis. Major pharmacokinetic parameters were analyzed using WinNonlin 7.0 software with a non-compartmental model. Table 3: Rat pharmacokinetic study results.
Herein, Cmax represents peak concentration, Tmax represents time to peak concentration, AUC represents area under the plasma concentration-time curve, T1/2 represents elimination half-life, and F represents bioavailability.

[3] = test system: bleomycin-induced pulmonary fibrosis mice; test: Survival rate in bleomycin-induced pulmonary fibrosis mouse model; details: bleomycin 1 mg/kg intratracheal; 30 mg/kg by gavage, treatment from day 7 for 14 days, 21 days in total; 6 mice per group
Procedure: The oral medicaments in this example comprise an active pharmaceutical ingredient and a solvent.
The active pharmaceutical ingredient is Compound 1 to Compound 4, at a dosage of 30 mg/kg. The solvent is water.
as §1, §2, §3, §4, §5, §6, §7
Furthermore, the effects of Compounds 1 to 4 were 1.2 times that of the Vofopitant group and 1.6 times that of the Nintedanib group.

Compound	Modified Ashcroft Score [1]	AUC0-24h [2] [ng·h/mL]	Cmax [2] [ng/mL]	T1/2 [2] [min]	Tmax [2] [min]	F [2] [%]	Survival Rate [3] [%]
[2H]C([2H])([2H])Oc1ccc(-n2nnnc2C(F)(F)F)cc1CN[C@@H]1CCCN[C@H]1c1ccccc1	2.902 ±0.248	3216	972	82.8	15	65.5	83.33
[2H]C([2H])([2H])Oc1ccc(-n2nnnc2C(F)(F)F)cc1CN[C@H]1CCCN[C@H]1c1ccccc1	2.475± 0.269	3867	1210	102	15	78.7	83.33
[2H]C([2H])([2H])Oc1ccc(-n2nnnc2C(F)(F)F)cc1CN[C@H]1CCCN[C@@H]1c1ccccc1	2.635 ±0.207	3873	1310	104	15	78.8	–
COc1ccc(-n2nnnc2C(F)(F)F)cc1CN[C@H]1CCCN[C@H]1c1ccccc1	3.482 ±0.179	3367	929	100	30	56.5	66.67
COC(=O)c1ccc2c(c1)NC(=O)/C2=C(\Nc1ccc(N(C)C(=O)CN2CCN(C)CC2)cc1)c1ccccc1	4.465 ±0.270	–	–	–	–	–	50.00
[2H]C([2H])([2H])Oc1ccc(-n2nnnc2C(F)(F)F)cc1CN[C@@H]1CCCN[C@@H]1c1ccccc1	2.797 ±0.259	3708	1164	96	15	74.3	83.33
